# Yeast mating assay 2: variants of the scFv Ab-95

The measurements come from Engelhart et al. 2022 (doi:10.1038/s41597-022-01779-4) through the FLAb antibody collection.

Binding partner: SARS-CoV-2 spike HR2 peptide, sequence PDVDLGDISGINAS.

Ab-95 is the parent antibody, in scFv form: VH, then the linker GGGGSGGGGSGGGGS, then VL. The heavy chain is unchanged in all variants.
VH: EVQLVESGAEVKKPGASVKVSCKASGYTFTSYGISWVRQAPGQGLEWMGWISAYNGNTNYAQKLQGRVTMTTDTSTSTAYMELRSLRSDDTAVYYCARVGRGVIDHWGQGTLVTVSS
VL: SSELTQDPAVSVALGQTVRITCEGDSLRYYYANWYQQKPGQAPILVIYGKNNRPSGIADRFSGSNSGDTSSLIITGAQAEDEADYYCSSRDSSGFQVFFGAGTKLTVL

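In library AAYL52, one, two or three CDR residues were substituted; doubles and triples were drawn at random. In AlphaSeq, yeast of one mating type display the scFv and yeast of the other type display the target. Mating (16 h, 30 °C) was followed by selection of diploids and sequencing of their barcodes. Scores were corrected for input abundance and mapped to Kd with protein pairs of known affinity run in the same pool. There are three technical replicates.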

Sequences are complete VL domains.
Scale: log10 of Kd in nM, estimated from mating counts; low values are strong binders.
A mean of the replicates is given; it leaves out those without a signal.
"n.d." means that the variant was in the library but no mating with the target was seen in that replicate; the authors take this as a sign of poor binding, and no number exists.
In this assay the parent's reference entry averaged 2.31; its copy inside this library read 2.25.

{"VL": "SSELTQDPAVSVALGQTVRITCEGDSLRYYYALWYQQKPGQAPILVIYGKNHRPSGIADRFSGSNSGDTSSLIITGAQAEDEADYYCSSRGSSGFQVFFGAGTKLTVL", "replicates, log10 nM": "n.d. / 4.29 / n.d.", "log10 Kd (nM), mean": "4.29", "control signals": "2 of 9 (4.61)"}
{"VL": "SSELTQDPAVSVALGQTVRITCEQDSGQYYYANWYQQKPGQAPILVIYGKNNRPSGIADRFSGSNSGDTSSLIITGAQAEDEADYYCSSRDSSGFQVFFGAGTKLTVL", "replicates, log10 nM": "n.d. / n.d. / 4.10", "log10 Kd (nM), mean": "4.10", "control signals": "1 of 9 (3.85)"}
{"VL": "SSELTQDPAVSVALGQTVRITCEGDSLRYYYARWYQQKPGQAPILVIYQKNNRPSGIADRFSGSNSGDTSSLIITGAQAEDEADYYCPSRDSSGFQVFFGAGTKLTVL", "replicates, log10 nM": "n.d. / 5.28 / n.d.", "log10 Kd (nM), mean": "5.28", "control signals": "4 of 9 (3.58)"}
{"VL": "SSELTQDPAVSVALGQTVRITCEGDSLRYYYANWYQQKPGQAPILVIYGKNNRPSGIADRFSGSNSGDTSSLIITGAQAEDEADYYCSSRDSKGFIVSFGAGTKLTVL", "replicates, log10 nM": "3.27 / n.d. / n.d.", "log10 Kd (nM), mean": "3.27", "control signals": "1 of 9 (4.47)"}
{"VL": "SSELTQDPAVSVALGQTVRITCEGDSLRYYYVNWYQQKPGQAPILVIYGKNNRPSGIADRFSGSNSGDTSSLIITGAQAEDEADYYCSSRDESGFPVFFGAGTKLTVL", "replicates, log10 nM": "4.43 / 3.00 / 3.91", "log10 Kd (nM), mean": "3.78", "control signals": "2 of 9 (4.35)"}
{"VL": "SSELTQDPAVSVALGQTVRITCEGDGLRYYYTNWYQQKPGQAPILVIYDKNNRPSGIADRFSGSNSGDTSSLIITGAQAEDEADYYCSSRDSSGFQVFFGAGTKLTVL", "replicates, log10 nM": "4.09 / 2.91 / n.d.", "log10 Kd (nM), mean": "3.50", "control signals": "5 of 9 (3.85)"}
{"VL": "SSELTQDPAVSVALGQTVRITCEGDSLRPYYANWYQQKPGQAPILVIYGKNNRPSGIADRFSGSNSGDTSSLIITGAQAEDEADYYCSQRDSSGFQVFFGAGTKLTVL", "replicates, log10 nM": "2.26 / 2.67 / 2.18", "log10 Kd (nM), mean": "2.37", "control signals": "2 of 9 (3.71)"}
{"VL": "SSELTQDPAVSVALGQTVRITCEGDSLRYYYAVWYQQKPGQAPILVIYGKNNRPSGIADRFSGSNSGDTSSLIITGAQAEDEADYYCSSRDSSGFQVLFGAGTKLTVL", "replicates, log10 nM": "3.72 / n.d. / n.d.", "log10 Kd (nM), mean": "3.72", "control signals": "2 of 9 (3.13)"}
{"VL": "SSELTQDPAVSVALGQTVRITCEGDSLRYTYANWYQQKPGQAPILVIYGKNNRPSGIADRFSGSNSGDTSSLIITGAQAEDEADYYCSSHDSSGFQHFFGAGTKLTVL", "replicates, log10 nM": "n.d. / n.d. / 3.35", "log10 Kd (nM), mean": "3.35", "control signals": "3 of 9 (4.27)"}
{"VL": "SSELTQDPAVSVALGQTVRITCEGDSLRYYYMNWYQQKPGQAPILVIYGKNNRPSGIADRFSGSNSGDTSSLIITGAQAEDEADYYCSSLDSQGFQVFFGAGTKLTVL", "replicates, log10 nM": "1.92 / 1.95 / 2.07", "log10 Kd (nM), mean": "1.98", "control signals": "2 of 9 (3.89)"}
{"VL": "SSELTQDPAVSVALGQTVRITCEGDSLRYYYVNWYQQKPGQAPILVIYGKNNRPFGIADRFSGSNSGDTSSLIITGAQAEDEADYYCCSRDSSGFQVFFGAGTKLTVL", "replicates, log10 nM": "2.68 / 2.25 / 2.28", "log10 Kd (nM), mean": "2.40", "control signals": "1 of 9 (3.68)"}
{"VL": "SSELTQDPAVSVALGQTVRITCEGDSLRYYYANWYQQKPGQAPILVIYGESNRPSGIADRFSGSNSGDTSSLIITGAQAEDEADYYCSSNDSSGFQVFFGAGTKLTVL", "replicates, log10 nM": "n.d. / 5.32 / n.d.", "log10 Kd (nM), mean": "5.32", "control signals": "4 of 9 (4.11)"}
{"VL": "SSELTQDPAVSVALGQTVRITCEGDSLRYYYANWYQQKPGQAPILVIYRKNNRPPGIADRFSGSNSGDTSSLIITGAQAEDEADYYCSSLDSSGFQVFFGAGTKLTVL", "replicates, log10 nM": "4.86 / 4.25 / n.d.", "log10 Kd (nM), mean": "4.56", "control signals": "4 of 9 (4.18)"}
{"VL": "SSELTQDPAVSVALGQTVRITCEGDSLVPYYANWYQQKPGQAPILVIYGKNNRPSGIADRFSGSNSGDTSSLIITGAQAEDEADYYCSSRDSSGFQMFFGAGTKLTVL", "replicates, log10 nM": "3.80 / n.d. / n.d.", "log10 Kd (nM), mean": "3.80", "control signals": "2 of 9 (3.68)"}
{"VL": "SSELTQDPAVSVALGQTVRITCEGDSDRYYYANWYQQKPGQAPILVIYGKNNRCSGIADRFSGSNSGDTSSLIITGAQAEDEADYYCSSRDSSGWQVFFGAGTKLTVL", "replicates, log10 nM": "n.d. / n.d. / n.d.", "log10 Kd (nM), mean": "n.d.", "control signals": "2 of 9 (4.63)"}
{"VL": "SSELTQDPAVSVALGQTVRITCEGDSLRYYYANWYQQKPGQAPILVIYGKENRPSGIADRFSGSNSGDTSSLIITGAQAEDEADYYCSSRISSGFEVFFGAGTKLTVL", "replicates, log10 nM": "3.39 / 2.53 / 2.54", "log10 Kd (nM), mean": "2.82", "control signals": "1 of 9 (3.50)"}
{"VL": "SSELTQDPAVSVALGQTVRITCEGDSLKYYYANWYQQKPGQAPILVIYGKNNRPHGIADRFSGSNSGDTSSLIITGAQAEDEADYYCSSRDSSSFQVFFGAGTKLTVL", "replicates, log10 nM": "3.12 / 4.59 / 3.17", "log10 Kd (nM), mean": "3.63", "control signals": "1 of 9 (3.56)"}
{"VL": "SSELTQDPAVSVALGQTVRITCEGDSLPYYYATWYQQKPGQAPILVIYCKNNRPSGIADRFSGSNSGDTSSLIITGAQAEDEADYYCSSRDSSGFQVFFGAGTKLTVL", "replicates, log10 nM": "5.31 / 3.85 / n.d.", "log10 Kd (nM), mean": "4.58", "control signals": "2 of 9 (4.19)"}
{"VL": "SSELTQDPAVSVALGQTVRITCHGDSLRYYYANWYQQKPGQAPILVIYGNNNRPSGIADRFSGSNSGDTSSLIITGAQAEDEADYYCRSRDSSGFQVFFGAGTKLTVL", "replicates, log10 nM": "3.50 / n.d. / n.d.", "log10 Kd (nM), mean": "3.50", "control signals": "0 of 9"}
{"VL": "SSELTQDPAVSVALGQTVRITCEGDSLMRYYANWYQQKPGQAPILVIYGKNNRPSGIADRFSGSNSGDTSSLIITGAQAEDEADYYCSGRDSSGFQVFFGAGTKLTVL", "replicates, log10 nM": "3.14 / 2.43 / n.d.", "log10 Kd (nM), mean": "2.79", "control signals": "2 of 9 (3.61)"}
{"VL": "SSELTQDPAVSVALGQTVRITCEGDSLRYYYANWYQQKPGQAPILVIYGKNNRPSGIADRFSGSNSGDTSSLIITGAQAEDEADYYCSSRDSSGFAVFFGAGTKLTVL", "replicates, log10 nM": "2.56 / 2.78 / 2.37", "log10 Kd (nM), mean": "2.57", "control signals": "1 of 9 (3.37)"}

A selection of 3 entries from above:

{"VL": "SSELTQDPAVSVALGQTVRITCEGDSLRYYYANWYQQKPGQAPILVIYGKNNRPSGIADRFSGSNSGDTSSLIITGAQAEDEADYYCSSRDSKGFIVSFGAGTKLTVL", "replicates, log10 nM": "3.27 / n.d. / n.d.", "log10 Kd (nM), mean": "3.27", "control signals": "1 of 9 (4.47)"}
{"VL": "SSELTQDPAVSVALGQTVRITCEGDSLRYYYVNWYQQKPGQAPILVIYGKNNRPFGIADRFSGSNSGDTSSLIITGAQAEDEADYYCCSRDSSGFQVFFGAGTKLTVL", "replicates, log10 nM": "2.68 / 2.25 / 2.28", "log10 Kd (nM), mean": "2.40", "control signals": "1 of 9 (3.68)"}
{"VL": "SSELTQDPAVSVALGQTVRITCEGDSLRPYYANWYQQKPGQAPILVIYGKNNRPSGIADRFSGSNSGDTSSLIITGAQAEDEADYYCSQRDSSGFQVFFGAGTKLTVL", "replicates, log10 nM": "2.26 / 2.67 / 2.18", "log10 Kd (nM), mean": "2.37", "control signals": "2 of 9 (3.71)"}

Three control strains display no target. For library AAYL52, 28% of the pairings with them gave a signal, with a median of 3.91 and one signal in twenty below 2.90, so weak values seen in few replicates may be background. The control count says in how many pairings with the empty strains this scFv gave a signal, with their mean in brackets.